From ChEMBL document CHEMBL3779865, “Discovery of Benzo[cd]indol-2(1H)-ones as Potent and Specific BET Bromodomain Inhibitors: Structure-Based Virtual Screening, Optimization, and Biological Evaluation” (J Med Chem, 2016)

Assays:
Rattus norvegicus = test: Apparent clearance during terminal phase in Sprague-Dawley rat at 5 mg/kg, iv; type: ADME, organism-based; settings: in vivo
[1] = Efflux ratio of apparent permeability from basolateral to apical side over apical to basolateral side in human Caco2 cells at 10 uM incubated for 1 hr by HPLC-MS/MS analysis; type: ADME, cell-based; settings: Caco-2

Compound `CCN1C(=O)c2cccc3c(NS(=O)(=O)c4cc(Br)ccc4OC)ccc1c23` has a CLz/F (Rattus norvegicus) of 132 mL/min/kg and an efflux ratio at 1 h, 10 µM [1] of 2.4.
